The results in this text go back to patent US20230346893A1, “Methods and Compositions for Preventing or Minimizing Epithelial-Mesenchymal Transition” (Innovon Pharmaceuticals Inc., priority 2016, published 2023).

The test system of the experiment is HK-2 cells. Briefly: TGF-β-induced collagen 1 mRNA expression (EMT marker) in HK-2 cells, quantitative real-time PCR. In kind it is cell-based, human. Conditions: mixture of sodium octanoate and sodium decanoate 500 μM; with albumin and without albumin; n=3. How it is done:
HSA was dissolved in PBS to obtain a concentration of 6.6% (6.6 g/100 ml), and was filtered using a 0.2 μm filter. 75 μl of sodium octanoate or sodium decanoate 10 mM was mixed with 75 μl of HSA 6.6% (without vortex), and incubated 10 min at room temperature. 100 μL of this mixture was used in the assay of Example 4 in a final volume of 1 ml (dilution 1:10).
Analysis was undertaken to determine the effect of various compositions on TGF-β-induced collagen 1 expression, which is a marker of EMT, on immortalized human proximal tubule epithelial cells (HK-2 cells). HK-2 cells were treated with TGF-β (an inducer of EMT) at a concentration of 10 ng/ml. Expression of the EMT marker collagen 1 mRNA was determined by quantitative real-time PCR.
Real-Time PCR was using human TaqMan Gene Expression Assay normalized to human GAPDH endogenous control. Reference is TGF-β1 control (RQ=1). The * and ** mean a p value of 0.05 and 0.01 respectively, compared to reference. Tested concentration of the mixture of sodium octanoate and sodium decanoate is 500 μM. The number of experiments is 3 (n=3).
Background: In qPCR the cycle at which signal appears reflects the starting amount.

As to “albumin: Human serum albumin (free fatty acid, naked human albumin, Sigma-Aldrich #A1887)”, the “Collagen 1a1 mRNA expression vs TGF-β1 control (FIG. 2, in words)” value was “no impact on collagen expression”.
